Measured values from patent publication US8518980B2, “Treatment of Duchenne muscular dystrophy” (Summit Corporation PLC, priority 2006, dated 2013).

Test system: Utrophin A promoter linked to a luciferase reporter gene (H2K/mdx/Utro A reporter cell line)
Experiment: Luciferase reporter assay (murine H2K cells)
Conditions: Table 1; luciferase level relative to control; final concentration of 10 μM

## CCP(=O)(OC)c1ccc2oc(-c3ccc(Cl)cc3)nc2c1 (stereo not shown) [Example 455, Methyl 2-(4-chlorophenyl)benzo[d]oxazol-5-yl(ethyl)phosphinate]
  Activity: ++++ (Above 401% relative to control)
